The results in this text go back to paper PMC7235778, “Methylxanthines Inhibit Primary Amine Oxidase and Monoamine Oxidase Activities of Human Adipose Tissue” (Medicines, 2020).

For the experiment, the target named is T1, primary amine oxidase (PrAO; SSAO/VAP-1) (Homo sapiens, UniProt Q16853).
T1 sequence (Q16853 1-763): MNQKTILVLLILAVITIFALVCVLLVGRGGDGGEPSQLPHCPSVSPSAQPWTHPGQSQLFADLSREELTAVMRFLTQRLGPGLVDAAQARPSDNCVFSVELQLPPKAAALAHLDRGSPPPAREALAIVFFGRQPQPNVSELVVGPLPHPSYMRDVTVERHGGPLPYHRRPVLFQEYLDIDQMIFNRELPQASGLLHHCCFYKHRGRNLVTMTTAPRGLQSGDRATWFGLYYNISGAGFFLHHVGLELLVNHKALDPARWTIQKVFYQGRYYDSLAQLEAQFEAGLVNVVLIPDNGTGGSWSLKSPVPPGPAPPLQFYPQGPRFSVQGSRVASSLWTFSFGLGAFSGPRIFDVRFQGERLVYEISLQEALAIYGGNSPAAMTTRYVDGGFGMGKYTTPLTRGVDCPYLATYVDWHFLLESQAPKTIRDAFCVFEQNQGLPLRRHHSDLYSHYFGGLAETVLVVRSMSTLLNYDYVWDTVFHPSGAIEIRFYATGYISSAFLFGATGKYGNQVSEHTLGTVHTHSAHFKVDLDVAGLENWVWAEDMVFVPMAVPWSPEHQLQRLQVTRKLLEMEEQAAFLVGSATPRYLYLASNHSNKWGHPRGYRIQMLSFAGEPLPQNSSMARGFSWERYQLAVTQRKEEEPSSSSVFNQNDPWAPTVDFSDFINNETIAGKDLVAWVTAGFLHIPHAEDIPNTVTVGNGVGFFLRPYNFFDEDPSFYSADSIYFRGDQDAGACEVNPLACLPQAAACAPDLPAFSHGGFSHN
More on the design: gene AOC3.

On to `CN` [methylamine], for which the “Amplex Red H2O2 assay in adipose tissue homogenate; semicarbazide-sensitive, par” value was “confirming that methylamine oxidation in hScAT is entirely due to PrAO”.
